High-throughput results (PubChem BioAssay)
Most compounds without a hit are left out; they make up all but 2.8% or so of the library.
esBAF inh – Bmi1 luciferase reporter increase in mESCs, primary screen, esBAF inhibitor project, mouse ES cells, Bmi1 luciferase knock-in, single point; actives 2% (n = 350,000); reporter increase, % at 12.5 µM; 24 h; 100% = twice the neutral-well signal; in the data active = activation above about 40%; inconclusive = no clear call, values can overlap the other calls;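 also: 0% = median of the plate's neutral control wells and 100% = double that signal; a rise in the Bmi1 reporter signal indicates esBAF inhibition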
miR122 inh – miR-122 Renilla sensor signal increase in Huh7, primary screen, miR-122 inhibitor project, cell-based, single point, plate reader; Huh7 miR-122 Renilla luciferase sensor, 48 h; neutral wells = 0, positive control = 100; activation (reporter increase), % at 12.5 µM; actives 0.3% (n = 340,000);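 active = mean replicate activation score at least 90 and every replicate individually at or above 90; inconclusive = only one of the two criteria met; inactive = neither criterion met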;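 also: higher luciferase means less miR-122 activity so hits act as miR-122 inhibitors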
UUG fidelity – modulators of start codon recognition fidelity in yeast; S. cerevisiae UUG-firefly luciferase reporter, luminescence/redox ratio; activity score, % at 18.7 µM; 0.13% of 350,000 active;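 active = replicate mean at a twofold rise or more, about +100% in these data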;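 also: firefly luciferase made from a UUG start codon reports start codon fidelity; reporter light over untreated wells divided by growth signal over untreated wells; some hits fall short of that in this replicate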
PglD DTNB – C. jejuni PglD acetyltransferase inhibitors, primary screen, biochemical, DTNB colorimetric, single point; UDP-N-acetylbacillosamine N-acetyltransferase PglD (Campylobacter jejuni); purified PglD enzyme, DTNB colorimetric CoA detection; inhibition, % at 12.5 µM; actives 0.098% (n = 360,000); in the data active = inhibition above about 16%, passing the limit was not always enough; inconclusive = no clear call, values can overlap the other calls
Wnt act – Wnt/beta-catenin pathway activators, primary screen, cell-based, plate reader, single point; Wnt/beta-catenin reporter cell assay, activator; activation, % at 9.35 µM; actives 1.2% (n = 300,000); AID 743398, 2014; in the data active = activation above about 30%, passing the limit was not always enough; inconclusive = no clear call, values can overlap the other calls;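 also: 0% = neutral control wells and 100% = positive control wells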
MITF TRPM1 HTS – activators of MITF-driven TRPM1 promoter reporter, primary screen, cell-based, SK-MEL-5, luciferase, single point; actives 0.75% (n = 300,000); SK-MEL-5 TRPM1-promoter luciferase, 24 h; % of positive control, neutral wells = 0; activation, % at 12.5 µM; AID 588334, 2011;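 active = mean activation of at least 80% with every replicate also reaching 80%; inconclusive = mean reaches 80% but some replicate falls short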;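 also: 0% = neutral control wells and 100% = parthenolide positive control wells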
Starred values were filed as active, the others as inactive; ? = inconclusive; · = no result; [ ] = remark or other dose.

esBAF inh | miR122 inh | UUG fidelity | PglD DTNB | Wnt act | MITF TRPM1 HTS | Structure
0 | 3[16.7 µM] | 8 | 1 | · | · | COc1ccc(NC(=O)N(C)C[C@@H]2Oc3c(NC(=O)Nc4ccccc4)cccc3C(=O)N([C@@H](C)CO)C[C@@H]2C)cc1
47* | -5 | -7 | 2 | 20 | 39 | C=CCc1ccc(OCc2ccc(C(=O)Nc3ccc(NC(C)=O)cc3)o2)c(OC)c1
0 | -17[16.7 µM] | 9 | 2 | · | · | CCC(=O)Nc1ccc2c(c1)C(=O)N(C)[C@@H]1CC[C@@H](CC(=O)Nc3cccc(OC)c3)O[C@H]1CO2
-13 | · | -5 | -2 | · | -5 | CCOC(=O)c1nn(-c2ccc(C)cc2)c2nc(Nc3ccccc3)cc(=O)n12
84* | · | -9 | 0 | · | 4 | Cc1ccc(-n2nc(C(=O)c3ccccc3)n3c(=O)cc(-c4ccccc4)nc23)cc1
2 | 3[16.7 µM] | 38 | -4 | · | · | CN1c2ccc(-c3ccccc3F)cc2[C@@H]2[C@@H](CCN2C(=O)Cc2ccccn2)[C@@H]1CO
-5 | -10[16.7 µM] | 1 | -1 | · | · | COCC(=O)N1C[C@@H](C)[C@H](OC)CN(C)C(=O)c2cc(NC(=O)c3ccc(OC)cc3)ccc2OC[C@H]1C
68* | 3 | -25 | 2 | · | 46 | N/C(=N\OC(=O)c1ccc(Cl)cc1)c1cccnc1
10 | 3 | -8 | 1 | -1 | 96* | N/C(=N\OC(=O)c1ccc(Cl)cc1)c1ccc(Cl)cc1
41* | 2 | -20 | 0 | 22 | 28 | N/C(=N\OC(=O)CC1CCCCC1)c1ccc(Cl)cc1
? | -7 | -19 | -3 | 65* | 56 | N/C(=N\OC(=O)c1ccco1)c1ccc(Cl)cc1
5 | -3 | · | · | 32* | 24 | N/C(=N\OC(=O)c1ccc(Cl)cc1Cl)c1cccnc1
-67 | · | -64 | 1 | · | -9 | N/C(=N\OC(=O)c1ccc(Cl)cc1Cl)c1ccccc1
· | · | · | · | 38* | 32 | N/C(=N\OC(=O)c1ccco1)c1cccnc1
· | · | -28 | -2 | 33* | 49 | Cc1cccc(/C(N)=N/OC(=O)c2cccnc2)c1

(cont.)
esBAF inh | miR122 inh | UUG fidelity | PglD DTNB | Wnt act | MITF TRPM1 HTS | Structure
? | -4 | · | · | 11 | 48 | N/C(=N\OC(=O)c1cccs1)c1cccnc1
-27 | -8 | -71 | 0 | 49* | ? | N/C(=N\OC(=O)c1ccc(Cl)cc1)c1ccn[nH]1
-2 | -8[16.7 µM] | 4 | 1 | · | · | C[C@@H]1CN([C@@H](C)CO)C(=O)c2cc(NS(=O)(=O)c3ccc(Cl)cc3)ccc2O[C@@H]1CN(C)CC1CCCCC1
· | · | · | · | 46* | 58 | Cc1cccc(/C(N)=N/OC(=O)c2ccc(Br)o2)c1
-4 | 1[16.7 µM] | 11 | 4 | · | · | Cc1ccc(S(=O)(=O)Nc2ccc3c(c2)C(=O)N([C@@H](C)CO)C[C@@H](C)[C@@H](CN(C)C(=O)CCCN(C)C)OCCCC[C@H](C)O3)cc1
3 | -2[16.7 µM] | -3 | -4 | · | · | C[C@@H]1CCCCO[C@H](CN(C)S(=O)(=O)c2ccc(F)cc2)[C@H](C)CN([C@@H](C)CO)C(=O)c2cc(NC(=O)Nc3ccc4c(c3)OCO4)ccc2O1
30 | 1 | -63 | -1 | 61* | · | O=C(c1ccccc1)c1nnc(-c2ccccc2F)o1
4 | 150* | -18 | -3 | · | · | COc1ccc(S(=O)(=O)Nc2ccc3c(c2)COC3=O)cc1OC
6 | 37 | -3 | 6 | -1 | 3 | CC(C)(C)c1ccc(S(=O)(=O)Nc2ccc3c(c2)COC3=O)cc1
8 | 4[16.7 µM] | · | 4 | · | · | CN(C)CC(=O)Nc1ccc2c(c1)[C@H]1C[C@@H](CC(=O)NCc3cc(F)ccc3F)O[C@@H](CO)[C@H]1O2
0 | -3[16.7 µM] | -4 | 4 | · | · | C[C@@H]1CN([C@@H](C)CO)C(=O)c2cccc(NS(=O)(=O)c3ccccc3)c2O[C@@H]1CN(C)C(=O)Nc1ccc(C(F)(F)F)cc1
0 | · | 14 | -2 | · | · | C[C@H](CO)N1C[C@H](C)[C@@H](CN(C)C(=O)Nc2cccc(F)c2)OCc2ccccc2-c2c(n(C)c3ccccc23)C1=O
-11 | 0[16.7 µM] | -7 | 5 | · | · | CCCNC(=O)C[C@@H]1C[C@H]2c3cc(NC(=O)NC4CCCC4)ccc3O[C@H]2[C@@H](CO)O1
-10 | 13[16.7 µM] | 1 | -1 | · | · | CCCC(=O)Nc1ccc2c(c1)C(=O)N(C)C[C@@H](OC)[C@H](C)CN(C(C)=O)[C@@H](C)CO2
· | · | · | · | 41* | · | Brc1ccsc1/C=N/Nc1ccccc1

Continuation:
esBAF inh | miR122 inh | UUG fidelity | PglD DTNB | Wnt act | MITF TRPM1 HTS | Structure
-45 | · | -56 | -1 | 12 | -63 | Cc1ccsc1/C=N/Nc1ccc(C(=O)O)cc1
30 | 6 | -14 | -3 | · | 126* | Cc1snc(SCC(=O)c2ccc(Cl)cc2)c1C#N
· | 7 | · | · | · | 69 | Cc1ccc(C(=O)CSc2nsc(C)c2C#N)cc1
· | · | · | · | 42* | 57 | Cc1ccnc(SCC(=O)c2ccc(Br)cc2)c1C#N
8 | 1 | -15 | -1 | · | 10 | Cc1ccc(CNCc2ccccc2Cl)cc1
· | · | · | · | 34* | 17 | Fc1ccc(CNCc2ccccc2Cl)cc1
12 | 5 | -8 | 0 | 2 | 22 | COc1ccc(C2=CC(=O)CC(c3ccc(OC)cc3)C2)cc1 (centres undefined)
-1 | 1 | -16 | -6 | 20 | 16 | O=C1C=C(c2ccc(-c3ccccc3)cc2)C[C@@H](c2ccc(F)cc2)C1
45* | · | -8 | 0 | 14 | 48 | O=C1C=C(c2ccc(C(=O)O)cc2)C[C@@H](c2ccc(F)cc2)C1
76* | · | -3 | -1 | 12 | · | CCOc1ccc(C2=CC(=O)C[C@H](c3ccc(OC)cc3)C2)cc1
5 | -21[16.7 µM] | 28 | 5 | · | · | C[C@@H]1CCCCO[C@@H](CN(C)Cc2ccc(Cl)c(Cl)c2)[C@H](C)CN([C@@H](C)CO)C(=O)c2cc(NC(=O)C3CCCCC3)ccc2O1
2 | -10[16.7 µM] | -6 | -1 | · | · | CC(C)NC(=O)Nc1ccc2c(c1)CC(=O)N([C@H](C)CO)C[C@H](C)[C@H](CN(C)Cc1ccc(Cl)c(Cl)c1)O2
· | · | · | · | 0 | · | O=C(c1ccco1)N1CCN(C(=O)c2ccco2)CC1
60* | -7 | -12 | 2 | 22 | 99* | O=C(Nc1ccc(-c2ccc(N3CCCCC3)nn2)cc1)c1ccco1
4 | -17 | 0 | -6 | · | 17 | Cc1nc(N2CCN(c3ccccc3)CC2)nc2c1C(=O)CCC2
41* | -6 | -6 | 6 | 19 | 41 | Cc1nc(N2CCN(C(=O)c3ccco3)CC2)nc2c1C(=O)CCC2
14 | · | -17 | 0 | 41* | 48 | O=C(Nc1ccc(N2CCCC2)c(Cl)c1)c1ccco1
· | · | -19 | 1 | 0 | 7 | O=C(Nc1ccc(-c2nnc3n2CCCCC3)cc1)c1ccco1

Six compounds already listed, arranged by their value in PglD DTNB, low to high.
mol	PglD DTNB
CC(C)NC(=O)Nc1ccc2c(c1)CC(=O)N([C@H](C)CO)C[C@H](C)[C@H](CN(C)Cc1ccc(Cl)c(Cl)c1)O2	-1
O=C1C=C(c2ccc(C(=O)O)cc2)C[C@@H](c2ccc(F)cc2)C1	0
O=C(Nc1ccc(-c2nnc3n2CCCCC3)cc1)c1ccco1	1
O=C(Nc1ccc(-c2ccc(N3CCCCC3)nn2)cc1)c1ccco1	2
C[C@@H]1CCCCO[C@@H](CN(C)Cc2ccc(Cl)c(Cl)c2)[C@H](C)CN([C@@H](C)CO)C(=O)c2cc(NC(=O)C3CCCCC3)ccc2O1	5
Cc1nc(N2CCN(C(=O)c3ccco3)CC2)nc2c1C(=O)CCC2	6

Compound profiles, from the list above. Order of values: esBAF inh | miR122 inh | UUG fidelity | PglD DTNB | Wnt act | MITF TRPM1 HTS
Profile of N/C(=N\OC(=O)c1ccc(Cl)cc1)c1ccc(Cl)cc1 → 10 | 3 | -8 | 1 | -1 | 96*
Profile of O=C1C=C(c2ccc(-c3ccccc3)cc2)C[C@@H](c2ccc(F)cc2)C1 → -1 | 1 | -16 | -6 | 20 | 16
